Literature values in patent US6759059B1.
Only a part of the results on these compounds is given; other tests are left out.

Conditions: transbuccal lozenge; Farrar et al. 1998

CCC(=O)N(c1ccccc1)C1CCN(CCc2ccccc2)CC1
time of peak plasma concentrations: around 20 minutes
